## scFv variants of Ab-95 (light chain) against a SARS-CoV-2 spike peptide

The measurements come from Engelhart et al. 2022 (doi:10.1038/s41597-022-01779-4) through the FLAb antibody collection.

Antigen: PDVDLGDISGINAS, a 14-residue peptide of the SARS-CoV-2 spike HR2 region.

Ab-95 is the parent antibody, in scFv form: VH, then a 15-residue (Gly4Ser)3 linker, then VL. The heavy chain is unchanged in all variants.
VH: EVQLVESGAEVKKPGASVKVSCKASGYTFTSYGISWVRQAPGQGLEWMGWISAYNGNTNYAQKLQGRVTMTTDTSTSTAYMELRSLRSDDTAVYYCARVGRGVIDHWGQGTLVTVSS
VL: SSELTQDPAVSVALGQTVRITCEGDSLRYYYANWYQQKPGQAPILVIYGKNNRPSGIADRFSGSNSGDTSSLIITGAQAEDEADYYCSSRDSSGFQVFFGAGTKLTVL

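Library AAYL52 holds single substitutions and randomly drawn double and triple substitutions in the CDRs. In AlphaSeq, yeast of one mating type display the scFv and yeast of the other type display the target. After mating in shaken culture at 30 °C for 16 h, diploids were selected and their barcode pairs sequenced. The ratio of observed to expected reads was calibrated, replicate by replicate, on BCL2-family standards whose Kd was known from biolayer interferometry. Mating was done three times.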

The parent's light chain CDRs are EGDSLRYYYAN, GKNNRPS, SSRDSSGFQVF; each variant's own CDRs replace them letter for letter. Affinities are written as log10 Kd with Kd in nM; a lower number is a better binder. A mean of the replicates is given; it leaves out those without a signal. A pair that was not seen in that replicate is written "n.d."; this usually means weak binding, but a binder can also be missed. Empty control strains, which show no peptide, gave a signal in 28% of pairings with library AAYL52; the median was 3.91 and 95% of these signals were weaker than 2.90. No background was subtracted. Also given: how often the same scFv was detected with the empty control strains, with their mean in brackets.

| CDR-L1 | CDR-L2 | CDR-L3 | log10 Kd (nM) by replicate | mean log10 Kd (nM) | signal with controls |
|---|---|---|---|---|---|
| EGDSARYDYAN | GKNNRPS | SSRDSSGFQVF | 2.66 / 2.63 / 2.55 | 2.61 | 3/9 (3.52) |
| EGDDLRYYYAN | GKKNRPS | SSRDSAGFQVF | 3.02 / 3.40 / n.d. | 3.21 | 3/9 (3.49) |
| EGDSLRYYYFN | GINNRPS | SSRDSSGFGVF | 3.55 / n.d. / n.d. | 3.55 | 3/9 (3.96) |
| EGDSLRYYYRN | GKNNRPS | KSRPSSGFQVF | n.d. / n.d. / n.d. | n.d. | 2/9 (4.03) |
| EGDSLQYYYAN | GKANRPS | SSRDSKGFQVF | 3.26 / 2.65 / n.d. | 2.95 | 2/9 (4.19) |
| ELDSLRYYYAN | GKDNRPS | SSRRSSGFQVF | n.d. / n.d. / n.d. | n.d. | 2/9 (3.40) |
| EGDSLRYYYAN | GKNNRPS | SSRDGSGFQTF | 2.25 / 2.63 / 2.70 | 2.53 | 3/9 (4.02) |
| EGDSVRYYYAN | SKNNRPS | SSRDSSRFQVF | n.d. / n.d. / n.d. | n.d. | 1/9 (3.01) |
| ECDSLRYYYAN | AKNNRPS | SSRDSFGFQVF | 5.23 / 3.51 / n.d. | 4.37 | 1/9 (4.92) |
| EGDSLRYYYAN | GKNNGNS | SSRDSSGKQVF | n.d. / n.d. / n.d. | n.d. | 1/9 (3.58) |
| EGDSLRYYTAN | GKNNKPS | SSRDSSGFQVE | 3.23 / 3.22 / 2.51 | 2.99 | 1/9 (2.87) |
| EGDSLRYYYAN | GKNNRPS | SSRDMYGFQVF | 3.41 / 3.07 / 2.77 | 3.08 | 0/9 |
| EGCSLRYYYLN | GKNNRPS | SSRDSSRFQVF | n.d. / 4.15 / 3.16 | 3.65 | 4/9 (4.06) |
| EGDSLRYYFAN | GKNNRNS | SKRDSSGFQVF | n.d. / 4.02 / 3.44 | 3.73 | 1/9 (2.58) |
| IGDSLRAYYAN | GKNNRPS | SSRHSSGFQVF | 2.55 / 2.59 / 2.26 | 2.47 | 5/9 (3.97) |
| EGDSLSYYYAN | GKNNRPS | SSRDSSLFQVD | 3.26 / 3.84 / 2.22 | 3.11 | 2/9 (3.62) |
| EGDSLRYYYAS | GKNNYPS | SNRDSSGFQVF | n.d. / n.d. / n.d. | n.d. | 0/9 |
| EGDSDRYYYAN | GKNNRPS | LSRDSVGFQVF | n.d. / 4.28 / 4.52 | 4.40 | 4/9 (4.36) |
| EGDSLRYYYAN | GKNNRIS | SSRDSSGEQEF | n.d. / n.d. / n.d. | n.d. | 2/9 (3.41) |
| EGDSLRWYYAN | GENNRPS | SSRDSHGFQVF | 3.16 / 3.41 / n.d. | 3.29 | 2/9 (4.32) |
| EGDSLRYYYCY | GKNNRPS | SSRDSSGFQVQ | n.d. / 4.87 / 2.91 | 3.89 | 5/9 (3.38) |
| EGDSLRYYPAK | GKNNRPS | SSRDSSGFQVW | 4.64 / n.d. / 3.76 | 4.20 | 1/9 (4.15) |
| EGDSLRNFYAN | GKNNRPS | SSRDSSGFQVL | 3.10 / 2.62 / 2.59 | 2.77 | 1/9 (3.48) |
| EGDSLTYYYAN | GKNNRDS | SSRDSSGFTVF | n.d. / n.d. / n.d. | n.d. | 1/9 (3.39) |
| EGYSLEYYYAN | GKNNRPS | SSRDKSGFQVF | 2.56 / 2.94 / 2.30 | 2.60 | 3/9 (3.45) |
| EPNSLRYYYAN | GKNNRPS | SSRDSSGMQVF | n.d. / n.d. / 4.35 | 4.35 | 3/9 (4.01) |

Continued, with the values leading:

| log10 Kd (nM) by replicate | mean log10 Kd (nM) | signal with controls | CDR-L1 | CDR-L2 | CDR-L3 |
|---|---|---|---|---|---|
| 4.77 / 3.30 / 3.25 | 3.77 | 3/9 (3.61) | NGDSLWYYYAN | GKNNAPS | SSRDSSGFQVF |
| 3.29 / 3.51 / 3.35 | 3.38 | 0/9 | EGDSLVYYYKN | GKNNRPS | SSRDSLGFQVF |
| 1.46 / 1.56 / 1.21 | 1.41 | 3/9 (4.77) | TGDSLRYYNAN | GKNNRPS | SSRLSSGFQVF |
| 3.22 / 3.39 / n.d. | 3.31 | 2/9 (4.39) | EGDSLYYYYAN | GKNNRES | SSRDSIGFQVF |
| 3.36 / 3.21 / 3.95 | 3.50 | 4/9 (3.93) | EGTSLRCYYAN | GKNNRPS | SSRDSSGFAVF |
| 2.69 / 2.39 / 2.56 | 2.54 | 0/9 | EGDSLRYYYAW | GKNNRPS | SSRDSCGFQVF |
| 3.12 / 3.76 / 3.91 | 3.60 | 2/9 (4.98) | EGDSLRYYYAN | GKNMRPS | SSEDSSGRQVF |
| n.d. / 3.76 / n.d. | 3.76 | 1/9 (4.81) | EGDSLRYYYAN | GKNNRPS | SSMDESGFEVF |
| 2.58 / n.d. / n.d. | 2.58 | 1/9 (4.50) | EGDSLRMYYAN | GKNWRTS | SSRDSSGFQVF |
| 1.39 / 1.19 / 0.98 | 1.19 | 5/9 (4.28) | EGDSLRYYQAN | GKNNRPV | SSRDSSGFQVF |
| n.d. / 5.38 / 3.51 | 4.45 | 2/9 (4.11) | HGDSLRYYYAN | GKYNRPS | SSRDSSVFQVF |
| n.d. / n.d. / n.d. | n.d. | 0/9 | EGQSLRYYYAG | GKQNRPS | SSRDSSGFQVF |
| 4.05 / 5.41 / 3.75 | 4.40 | 5/9 (3.99) | EGDSGRYYYAN | GKNNAPS | SERDSSGFQVF |
| 4.09 / 4.00 / n.d. | 4.04 | 2/9 (3.48) | EGKSLYYYYAN | GKTNRPS | SSRDSSGFQVF |
| 4.58 / 4.51 / n.d. | 4.55 | 4/9 (4.39) | EGPSLRYYVAN | WKNNRPS | SSRDSSGFQVF |
| 2.04 / 2.11 / 1.87 | 2.01 | 3/9 (4.26) | EGDSLRYEYAN | GKNNRPS | SSRDSGMFQVF |
| 4.12 / 4.92 / n.d. | 4.52 | 3/9 (4.83) | CGDSLRYYYAT | GKNNRPS | SSRDSSGFCVF |
| 2.83 / n.d. / n.d. | 2.83 | 1/9 (2.75) | EGDSLRYYYAN | GKNNQPS | SSRVCSGFQVF |
| 2.17 / 2.14 / 1.70 | 2.00 | 2/9 (3.06) | EGDNLRYYPAN | GLNNRPS | SSRDSSGFQVF |
| n.d. / n.d. / n.d. | n.d. | 3/9 (4.64) | ECDSLRYYYAN | GKNNRPS | SHRDSSGFQSF |
| 5.05 / n.d. / n.d. | 5.05 | 3/9 (3.49) | EGDELRYYYAN | GKNNRPL | SSRHSSGFQVF |
| 2.53 / 2.59 / 2.15 | 2.42 | 1/9 (4.93) | LGDSLRYCYAN | GKNNRPS | SSRDSSGFQVF |
| n.d. / n.d. / 3.25 | 3.25 | 2/9 (3.75) | EIDSLRYYYAV | GKNNRPS | SSRDSSGIQVF |
| n.d. / 4.00 / 3.49 | 3.74 | 2/9 (4.00) | EGDSLRYYYMN | GKNNRPS | SSRNDSGFQVF |
| 4.37 / 4.48 / n.d. | 4.42 | 1/9 (3.83) | EEDSLRYYYAN | GKNNRPG | SSRDSSGFGVF |
| 1.81 / 1.93 / 1.83 | 1.86 | 2/9 (3.87) | EGDSLRYEYAS | GKNNRPS | SSRDSSGFQVF |

The closing 3 entries, repeated:

CDR-L1,CDR-L2,CDR-L3,log10 Kd (nM) by replicate,mean log10 Kd (nM),signal with controls
EGDSLRYYYMN,GKNNRPS,SSRNDSGFQVF,n.d. / 4.00 / 3.49,3.74,2/9 (4.00)
EEDSLRYYYAN,GKNNRPG,SSRDSSGFGVF,4.37 / 4.48 / n.d.,4.42,1/9 (3.83)
EGDSLRYEYAS,GKNNRPS,SSRDSSGFQVF,1.81 / 1.93 / 1.83,1.86,2/9 (3.87)